Assay results published in PubChem BioAssay AID2205 (University of Pittsburgh Molecular Library Screening Center, 2009).
This is a selection; strong and weak results do not stand in their true shares. The source made the active and inactive calls.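 How the source made its calls: active means plate Z-score above 3 for both tubulin-high and condensed-nucleus cell shares, with cell loss under 80%, at 10 µM; inactive means the rest, inconclusive results apart.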

Assay: tubulin staining increase by stabilizing compounds – imaging, high-content imaging, primary screen (AID 2205)
Settings: HeLa tubulin immunostaining HCS, 24 h; at 10 µM; stronger effect = higher value; share of cells brighter than vehicle mean+2SD

| SMILES | % tubulin-high responders |
| --- | --- |
| CCOP1(=S)c2c(C)nn(CCC#N)c2N=C(c2ccc(F)cc2)N1C (stereo not drawn) | inactive: 2.24% |
| CC1=NCCc2c1[nH]c1ccccc21.O=[N+]([O-])c1cc([N+](=O)[O-])c(O)c([N+](=O)[O-])c1 | inactive: 5.16% |
| O=[N+]([O-])c1ccc2c(c1)nnn2O | inactive: 3.11% |
| COc1cc(C(=O)NCC2(N3CCOCC3)CCCCC2)cc(Cl)c1OC(C)C | inactive: 2% |
| Cc1cc(C)cc(OP(C)(=O)Nc2ccc(C)cc2C)c1 (stereo not drawn) | inactive: 1.33% |
| Cc1cccc(OCC(=O)OC2CN3CCC2CC3)c1 (stereo not drawn) | inactive: 1.84% |
| CCOC(=O)c1ccc(NP(C)(=O)Oc2cc(C)cc(C)c2)cc1 (stereo not drawn) | active: 17.9% |
| Cc1ccc(NCCc2c([N+](=O)[O-])cc([N+](=O)[O-])cc2[N+](=O)[O-])cc1 | inactive: 3.98% |
| CP(=O)(Nc1cccc(Br)c1)Oc1ccccc1 (stereo not drawn) | inactive: 4.52% |
| Cc1cc(C)cc(OP(C)(=O)Nc2ccccn2)c1 (stereo not drawn) | inactive: 2.43% |
| Cc1ccc(C)c(NP(C)(=O)Oc2ccccc2)c1 (stereo not drawn) | inactive: 2.76% |
| CCOP(=O)(Nc1cccc2ccccc12)OCC | inactive: 3.4% |
| Cc1c2c(nc3ccccc13)SC(C(Cl)Cl)C2 (stereo not drawn) | inactive: 3.17% |
| CCN(CC)CCCOC(=O)C(O)(c1ccccc1)c1ccccc1 | inactive: 3.99% |
| Cc1cc(=O)[nH]c(N[N+](=O)[O-])n1 | inactive: 3.04% |
| O=C(OC1CN2CCC1CC2)C12CC3CC(CC(C3)C1)C2 (stereo not drawn) | inactive: 5.29% |
| COc1ccc2nc(NP(=O)(c3ccccc3)c3ccccc3)sc2c1 | inactive: 1.86% |
| COc1ccc(N/C(=N/P(=O)(N2CCOCC2)N2CCOCC2)N2CCOCC2)cc1 | inactive: 1.39% |
| Cc1cccc(C)c1OP(C)(N)=O (stereo not drawn) | inactive: 3.25% |
| CC(C)(C)c1ccc(OP(C)(=O)Nc2ccc(SC(F)(F)F)cc2)cc1 (stereo not drawn) | inactive: 1.96% |
| Cc1ccc2nc3c(c(C)c2c1)CC(C(Cl)Cl)S3 (stereo not drawn) | inactive: 4.88% |
| O=[N+]([O-])c1ccc2c(c1)C=Nc1ccccc1O2 | inactive: 7.25% |
| ClCCSc1nnc(-c2cccnc2)o1 | inactive: 2.14% |
| CCOC(=O)c1ccc(NP(C)(=O)Oc2ccccc2)cc1 (stereo not drawn) | inactive: 2.15% |

| SMILES | % tubulin-high responders |
| --- | --- |
| Cc1ccc(NP(C)(=O)Oc2ccccc2)c(C)c1 (stereo not drawn) | inactive: 3.47% |
| COc1ccccc1OP(C)(=O)Nc1ccc(C)cc1 (stereo not drawn) | inactive: 7.46% |
| O=[N+]([O-])c1cc([N+](=O)[O-])c(-c2ccn[nH]2)s1 | inactive: 2.94% |
| COc1ccc(OP(C)(=O)Nc2cccc(F)c2)cc1 (stereo not drawn) | inactive: 2.18% |
| CCN(CC)C(=S)SC(NC=O)C(Cl)(Cl)Cl (stereo not drawn) | inactive: 2.47% |
| COc1ccccc1OP(C)(=O)Nc1cc(Cl)ccc1C (stereo not drawn) | inactive: 3.62% |
| CC(C)NC(=O)NP(=O)(Oc1ccccc1)Oc1ccccc1 | inactive: 2.4% |
| Cc1cc(C)cc(OP(C)(N)=O)c1 (stereo not drawn) | inactive: 3.46% |
| Cc1cc(SC(NC(=O)c2ccccc2)C(Cl)(Cl)Cl)nc(C(C)C)n1 (stereo not drawn) | inactive: 7.1% |
| CP(=S)(Nn1cnnc1)Oc1ccccc1 (stereo not drawn) | inactive: 2.71% |
| COc1ccccc1OP(C)(=O)Nc1ccccc1 (stereo not drawn) | inactive: 1.01% |
| O=P(Nc1ccccn1)(c1cccc2ccccc12)c1cccc2ccccc12 | inactive: 5.46% |
| Cc1cc(SC(NC=O)C(Cl)(Cl)Cl)ncn1 (stereo not drawn) | inactive: 2.3% |
| CP(=O)(Nc1ccccc1Br)Oc1ccccc1 (stereo not drawn) | inactive: 2.62% |
| CP(=O)(Oc1ccccc1)OC(c1ccccc1)C(F)(F)F (stereo not drawn) | inactive: 4.59% |
| Cc1cccc(C)c1OP(C)(=O)Nc1ccc(SC(F)(F)F)cc1 (stereo not drawn) | inactive: 4.23% |
| COP1(=S)c2c(C)nn(CCC#N)c2N=C(c2ccc(F)cc2)N1C (stereo not drawn) | inactive: 1.87% |
| Cc1cc(C)cc(OP(C)(=O)Nc2ccc(SC(F)(F)F)cc2)c1 (stereo not drawn) | inactive: 4.45% |
| O=C(COc1ccccc1)OC1CN2CCC1CC2 (stereo not drawn) | inactive: 1.45% |
| CP(=O)(NC(=O)Nc1ccccc1)Oc1ccccc1 (stereo not drawn) | inactive: 4.49% |
| CCOP(C)(=S)SCC(=O)NC(C)C(=O)O (stereo not drawn) | inactive: 2.98% |
| CCOC(=O)c1ccc(NP(C)(=O)Oc2ccc(OC)cc2)cc1 (stereo not drawn) | inactive: 3.08% |
| CCC(C)N(CC(C)C)C(=S)SC(NC(C)=O)C(Cl)(Cl)Cl (stereo not drawn) | inactive: 6.01% |
| CP(=O)(Nc1ccccn1)Oc1ccc(Cl)cc1 (stereo not drawn) | inactive: 1.31% |
